{"source": "patent US20050100897A1", "about": "“NFAT transcription factors in tumor progression” (priority 2002, published 2005)", "key": {"[1]": {"tested_on": "Clone A colon cancer cell line", "assay": "Matrigel chemoinvasion assay, Clone A cells", "assay_type": "cell-based, human", "conditions": "transient transfection", "from_the_text": "FIGS. 3A-3C show the role of NFAT-5 in mediating carcinoma invasion. FIG. 3A is a graph showing luciferase levels in MDA-MB-435 cells expressing vector alone, β4.ΔCYT (3C12), or wild-type β4^+ (3A7 clone) that were transiently transfected with an NFAT-5-luciferase reporter construct (NFAT-5-luc). Luciferase activity is shown as relative luciferase units. […] The lysates were resolved by SDS PAGE and immunoblotted with anti-NFAT-5 (α-NFAT-5, top panel) or anti-p85 (α-p85, bottom panel) The position of the 175 kDa and 90 kDa markers are indicated (left). […] The ability of the transfected cells to invade Matrigel was then assayed and the data are shown as the relative invasion of NFAT-5-transfected cells compared to vector alone-transfected cells (100%).\nInvasion assays were performed using standard methods (see Shaw et al., Cell 91:949-960, 1997) using Transwell chambers coated with Matrigel. […] Cells that stained positive for β-galactosidase expression were counted, and the mean of triplicate assays for each experimental condition was used as % relative invasion. […]"}, "[2]": {"tested_on": "MDA-MB-435 β4+-expressing cells (3A7)", "assay": "Matrigel chemoinvasion assay, MDA-MB-435 β4+ transfectants", "assay_type": "cell-based, human"}}}
{"substance": "VIVIT peptide: peptide (SEQ ID NO:18) which blocks the ability of calcineurin to dephosphorylate and activate NFAT; transfected as GFP-VIVIT (MAGPHPVIVITGPHEE; listed as Homo sapiens)", "values": [{"measurement": "carcinoma invasion (relative invasion vs vector alone)", "setting": "[1]", "value": "blocked invasion"}, {"measurement": "invasion increased by constitutively active calcineurin allele", "setting": "[2]; co-transfected with VIVIT", "value": "inhibited"}, {"measurement": "carcinoma invasion (relative invasion vs vector alone)", "setting": "[2]; transient transfection, NIH 3T3 conditioned media as chemoattractant", "value": "reproducibly inhibited carcinoma invasion"}]}
